Test results as given in patent publication US12616739B2, “GLP-1 prodrugs and uses thereof” (Novo Nordisk A/S, priority 2020, dated 2026).

Assay: Prodrug to drug conversion half-life in vitro, PBS pH 7.4, 37° C.
Format: physicochemical
How it was run: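 Prodrug at a 200 μM target in PBS pH 7.4 incubated at 37 °C, sampled over 2 weeks and analysed by UPLC-UV (215 nm)-MS. ln of prodrug peak area % plotted against time; first-order half-life = ln(2)/k from the slope.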

half-life: 24.1 days
SMILES: CC[C@H](C)[C@H](NC(=O)[C@H](Cc1ccccc1)NC(=O)[C@H](CCC(=O)O)NC(=O)[C@H](CCCCNC(=O)COCCOCCNC(=O)COCCOCCNC(=O)CC[C@H](NC(=O)CCCCCCCCCCCCCCCCC(=O)O)C(=O)O)NC(=O)[C@H](C)NC(=O)[C@H](C)NC(=O)[C@H](CCC(N)=O)NC(=O)CNC(=O)[C@H](CCC(=O)O)NC(=O)[C@H](CC(C)C)NC(=O)[C@H](Cc1ccc(O)cc1)NC(=O)[C@H](CO)NC(=O)[C@H](CO)NC(=O)[C@@H](NC(=O)[C@H](CC(=O)O)NC(=O)[C@H](CO)NC(=O)[C@@H](NC(=O)[C@H](Cc1ccccc1)NC(=O)[C@@H](NC(=O)CNC(=O)[C@H](CCC(=O)O)NC(=O)C(C)(C)NC(=O)[C@H](Cc1c[nH]cn1)NC(=O)CN(CCN)C(=O)CN)[C@@H](C)O)[C@@H](C)O)C(C)C)C(=O)N[C@@H](C)C(=O)N[C@@H](Cc1c[nH]c2ccccc12)C(=O)N[C@@H](CC(C)C)C(=O)N[C@H](C(=O)N[C@@H](CCCNC(=N)N)C(=O)NCC(=O)N[C@@H](CCCNC(=N)N)C(=O)NCC(=O)O)C(C)C [Chem. 36, Gly-N^α-2-(aminoethyl)-Gly-semaglutide, reference compound]
